The entries are a selection whose mix differs from that of the whole data set. Activity calls are given as the source filed them.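 Rule for the calls: active = percent inhibition above its own plate's cutoff, namely the mean of that plate's compound wells plus 3 SD; inactive = the rest.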

Amino acid sequences for entries named in this document (tags omitted).
UniProt P11229, whole entry: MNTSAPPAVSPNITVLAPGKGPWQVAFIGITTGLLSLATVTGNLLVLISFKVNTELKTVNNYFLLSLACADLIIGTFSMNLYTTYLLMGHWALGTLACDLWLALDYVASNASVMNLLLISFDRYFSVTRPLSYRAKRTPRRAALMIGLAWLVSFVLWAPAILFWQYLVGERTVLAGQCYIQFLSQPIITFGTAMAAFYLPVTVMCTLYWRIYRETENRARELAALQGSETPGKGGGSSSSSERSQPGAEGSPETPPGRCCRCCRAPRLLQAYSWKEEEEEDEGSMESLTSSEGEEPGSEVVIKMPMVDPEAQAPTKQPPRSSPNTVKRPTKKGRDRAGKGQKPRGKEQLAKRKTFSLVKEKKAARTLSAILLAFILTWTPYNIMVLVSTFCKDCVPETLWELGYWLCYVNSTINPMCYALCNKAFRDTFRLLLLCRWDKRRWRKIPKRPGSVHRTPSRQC

For this assay, the target named is Muscarinic acetylcholine receptor M1 (Homo sapiens) (UniProt P11229). As to the kind of experiment: human M1 muscarinic receptor antagonists, primary screen, CHO-K1 cells, Fluo-8 calcium fluorescence, 1536-well (AID 588852).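 Note: peak over basal fluorescence ratio during 140 s after agonist addition; 0% = ACh EC80 plus DMSO and 100% = DMSO alone without agonist.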 Particulars: CHO-K1 hM1, Fluo-8 calcium fluorescence, ACh EC80 antagonist; at 3 µM; stronger effect = higher value.
Regarding `O=c1[nH]c2ccccc2n1C1CCN(C(c2ccccc2OC(F)(F)F)c2nnnn2C2CCCCC2)CC1` (stereo not drawn), the inhibition is inactive: -29.3%.

For `O=C(NCC1(N2CCCCC2)CCCCC1)c1ccc(Cl)nc1`, the inhibition was inactive: -9.52%.

Regarding `Cc1cc(C)cc(N(C(=O)c2ccccc2)C2CCN(C(=O)OC(C)(C)C)CC2)c1`, the inhibition is inactive: -14.3%.

As for `O=C(NCC1(N2CCOCC2)CCCCC1)c1cc2ccccc2o1`, the inhibition is inactive: -13.2%.

On to `O=C(NCC1(N2CCCCC2)CCCCC1)c1ccc(F)cc1`, for which the inhibition is inactive: -11.4%.

As for `CCCCOc1ccc(C(=O)NCC2(N3CCOCC3)CCCCC2)cc1`, the inhibition was inactive: -3.29%.

For `CCCCn1nnnc1C(c1cc2ccccc2o1)N1CCC(n2c(=O)[nH]c3ccccc32)CC1` (stereo not drawn), the inhibition was inactive: -24.5%.

As to `O=P1(N(CCCl)CCCl)SCCCS1`, the inhibition is inactive: -0.43%.

For the compound `CCOC(=O)N1CCC(Nc2ccc(F)cc2)CC1`, the inhibition is inactive: -6.88%.

As for `COc1ccc(NC2CCN(CCc3ccccc3)CC2)c(OC)c1`, the inhibition is inactive: 10.7%.

For the compound `CC(C)(C)n1nnnc1C(c1ccccc1)N1CCC(n2c(=O)[nH]c3ccccc32)CC1` (stereo not drawn), the inhibition was inactive: 1.95%.

As to `O=C1CCN(Cc2ccccc2)CC1`, the inhibition was inactive: -7.5%.

Take `CCOc1ccc(C)cc1CN(CCCl)CCCl`: the inhibition was inactive: 8.58%.

For the compound `COc1cc(C(=O)NCC2(N(C)C)CCCCC2)ccc1OC(F)F`, the inhibition was inactive: -4%.

Regarding `CCOC(=O)N1CCC(Nc2cccc(C)c2)CC1`, the inhibition is inactive: -19.5%.

For `O=c1[nH]c2ccccc2n1C1CCN(C(c2cccc3ccccc23)c2nnnn2C2CCCC2)CC1` (stereo not drawn), the inhibition is inactive: -31.3%.

As for `O=c1[nH]c2ccccc2n1C1CCN(C(c2ccccc2)c2nnnn2C2CCCCC2)CC1` (stereo not drawn), the inhibition is inactive: -21.4%.

In the case of `CCN1CCC(Nc2ccc(Cl)cc2)CC1`, the inhibition is inactive: 4.18%.

In the case of `N#CC1(Nc2ccccc2)CCN(CCc2ccccc2)CC1`, the inhibition is inactive: -15%.

As to `O=c1[nH]c2ccccc2n1C1CCN(C(c2ccccc2OC(F)(F)F)c2nnnn2C2CCCC2)CC1` (stereo not drawn), the inhibition was inactive: -14%.

As to `O=C(NCC1(N2CCCCC2)CCCCC1)c1cccc([N+](=O)[O-])c1`, the inhibition is inactive: -1.78%.

In the case of `CSc1ccc(C(=O)NCC2(N3CCOCC3)CCCCC2)cc1`, the inhibition is inactive: -6.27%.

As for `CC(C)(C)n1nnnc1C(c1ccccc1OC(F)(F)F)N1CCC(n2c(=O)[nH]c3ccccc32)CC1` (stereo not drawn), the inhibition is inactive: -36.1%.

As for `O=C(NCC1(N2CCCCC2)CCCCC1)c1ccc(OC(F)F)cc1`, the inhibition is inactive: -19.2%.

On to `O=C(NCC1(N2CCOCC2)CCCCC1)c1cc(=O)[nH]c2ccccc12`, for which the inhibition was inactive: -4.43%.

For `COc1cc(C(=O)NCC2(N3CCCCC3)CCCCC2)ccc1OC(F)F`, the inhibition was inactive: 8.92%.

Consider `CCCCn1nnnc1C(c1cccc2ccccc12)N1CCC(n2c(=O)[nH]c3ccccc32)CC1` (stereo not drawn), for which the inhibition was inactive: -24.6%.

Regarding `CC(C)c1ccc(C(=O)NCC2(N3CCOCC3)CCCCC2)cc1`, the inhibition was inactive: -6.55%.

Take `COc1ccc(NC2CCN(C(=O)OC(C)(C)C)CC2)cc1`: the inhibition is inactive: 1.55%.

For the compound `O=C(NCC1(N2CCCCC2)CCCCC1)c1cccc(C(F)(F)F)c1`, the inhibition was inactive: -0.99%.

As for `COc1cc(OC)c(C(=O)NCC2(N(C)C)CCCCC2)cc1OC`, the inhibition was inactive: -11.4%.

With `O=C(NCC1(N2CCOCC2)CCCCC1)c1cc(F)c(F)cc1Cl`, the inhibition is inactive: -5.89%.

Turning to `CCC(c1nnnn1C(C)(C)C)N1CCC(n2c(=O)[nH]c3ccccc32)CC1` (stereo not drawn), the inhibition is inactive: -24%.

With `CCCCn1nnnc1C(c1ccnc2ccccc12)N1CCC(n2c(=O)[nH]c3ccccc32)CC1` (stereo not drawn), the inhibition was inactive: 19.7%.

On to `CCCCn1nnnc1C(c1ccccc1OC(F)(F)F)N1CCC(n2c(=O)[nH]c3ccccc32)CC1` (stereo not drawn), for which the inhibition was inactive: -23.6%.

Regarding `CC(C)c1ccc(NC2CCN(C(=O)OC(C)(C)C)CC2)cc1`, the inhibition was inactive: -10%.

Turning to `COc1ccc(CN(CCCl)CCCl)cc1Cl`, the inhibition is inactive: -2.57%.

For the compound `CN(C)c1cccc(C(=O)NCC2(N3CCCCC3)CCCCC2)c1`, the inhibition was inactive: -0.51%.

As for `COc1ccc(C(c2nnnn2C2CCCC2)N2CCC(n3c(=O)[nH]c4ccccc43)CC2)cc1` (stereo not drawn), the inhibition is inactive: 2.39%.

Regarding `Cc1ccc(C(=O)NCC2(N(C)C)CCCCC2)o1`, the inhibition was inactive: -4.61%.

For the compound `CCCOc1ccc(C(=O)NCC2(N(C)C)CCCCC2)cc1OC`, the inhibition was inactive: -1.54%.

For `O=C(NCC1(N2CCCCC2)CCCCC1)c1cncc(Br)c1`, the inhibition is inactive: 0.86%.

For the compound `CN1CCC(Nc2cccc(F)c2)CC1`, the inhibition was inactive: -2.66%.

The values above are taken from PubChem BioAssay AID588852 (The Scripps Research Institute Molecular Screening Center, 2011).
